# Reference: patent US12685735B2 (Foghorn Therapeutics Inc., priority 2020, dated 2026)
# Sequences of proteins named here, by UniProt entry; tags and fusion partners are left off.
# UniProt P51532, whole entry: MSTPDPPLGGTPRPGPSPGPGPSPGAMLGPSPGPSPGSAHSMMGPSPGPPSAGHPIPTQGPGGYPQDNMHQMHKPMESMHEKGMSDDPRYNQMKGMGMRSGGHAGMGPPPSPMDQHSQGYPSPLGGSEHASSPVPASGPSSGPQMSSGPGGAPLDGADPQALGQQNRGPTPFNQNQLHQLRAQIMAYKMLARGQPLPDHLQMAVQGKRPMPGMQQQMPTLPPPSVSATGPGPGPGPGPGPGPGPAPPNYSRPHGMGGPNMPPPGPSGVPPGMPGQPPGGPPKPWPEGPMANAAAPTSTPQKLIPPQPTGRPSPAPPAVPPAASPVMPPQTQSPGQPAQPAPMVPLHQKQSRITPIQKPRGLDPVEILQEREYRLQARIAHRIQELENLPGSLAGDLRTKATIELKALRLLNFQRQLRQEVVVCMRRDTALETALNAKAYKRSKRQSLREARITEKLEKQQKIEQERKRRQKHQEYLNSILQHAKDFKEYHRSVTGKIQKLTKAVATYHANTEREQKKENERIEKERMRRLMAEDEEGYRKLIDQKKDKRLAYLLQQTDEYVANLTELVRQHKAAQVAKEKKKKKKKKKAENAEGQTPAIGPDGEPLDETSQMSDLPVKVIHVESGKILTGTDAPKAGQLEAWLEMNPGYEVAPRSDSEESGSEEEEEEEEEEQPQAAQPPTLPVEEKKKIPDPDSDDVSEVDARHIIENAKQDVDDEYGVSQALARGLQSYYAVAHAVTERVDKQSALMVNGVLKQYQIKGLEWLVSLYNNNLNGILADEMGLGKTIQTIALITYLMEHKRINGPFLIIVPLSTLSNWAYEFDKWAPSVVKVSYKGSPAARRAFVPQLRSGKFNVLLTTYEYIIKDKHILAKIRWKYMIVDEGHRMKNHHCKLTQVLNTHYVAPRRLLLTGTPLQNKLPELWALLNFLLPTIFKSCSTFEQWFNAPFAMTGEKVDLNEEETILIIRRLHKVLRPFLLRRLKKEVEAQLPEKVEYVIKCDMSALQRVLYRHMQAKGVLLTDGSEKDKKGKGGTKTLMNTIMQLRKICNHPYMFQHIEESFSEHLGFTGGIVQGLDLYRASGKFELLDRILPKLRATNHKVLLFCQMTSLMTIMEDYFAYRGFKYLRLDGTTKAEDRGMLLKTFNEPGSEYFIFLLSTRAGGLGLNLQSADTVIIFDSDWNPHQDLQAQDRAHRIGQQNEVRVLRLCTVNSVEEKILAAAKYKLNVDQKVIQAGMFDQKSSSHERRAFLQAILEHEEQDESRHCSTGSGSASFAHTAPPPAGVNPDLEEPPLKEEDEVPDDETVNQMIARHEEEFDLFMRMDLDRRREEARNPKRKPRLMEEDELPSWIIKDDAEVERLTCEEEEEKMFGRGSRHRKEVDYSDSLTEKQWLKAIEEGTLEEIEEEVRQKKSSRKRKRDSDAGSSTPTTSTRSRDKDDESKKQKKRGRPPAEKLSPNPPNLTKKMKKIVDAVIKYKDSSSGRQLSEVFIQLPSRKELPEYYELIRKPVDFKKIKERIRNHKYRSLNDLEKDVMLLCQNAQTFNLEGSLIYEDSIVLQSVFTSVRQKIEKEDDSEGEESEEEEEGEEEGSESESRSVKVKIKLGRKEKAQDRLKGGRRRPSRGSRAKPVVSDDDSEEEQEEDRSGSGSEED
# Biological target: BRG-1 (Homo sapiens, UniProt P51532)
# Assay: ATPase catalytic activity assay of BRG-1 (ADP-Glo)
# Assay type: biochemical
# Conditions: read-out: BRG1 Max % Inhibition
# Experimental: (§1) The ATPase catalytic activity of BRM or BRG-1 was measured by the in vitro biochemical assay using ADP-Glo™ (Promega, V9102). The ADP-Glo™ kinase assay is performed in two steps once the reaction is complete. The first step is to deplete any unconsumed ATP in the reaction. The second step is to convert the reaction product ADP to ATP, which will be utilized by the luciferase to generate luminesce and be detected by a luminescence reader, such as Envision.
# Then following addition of 5 μL of ADP-Glo™ Reagent provided in the kit, the reaction incubates at room temperature for 40 minutes. Then 10 μL of Kinase Detection Reagent provided in the kit is added to convert ADP to ATP, and the reaction incubates at room temperature for 60 minutes. Finally, luminescence measurement is collected with a plate-reading luminometer, such as Envision.
# as §1, with “The” for “The ATPase catalytic activity of BRM or BRG-1 was measured by the in vitro biochemical assay using ADP-Glo™ (Promega, V9102). The”
row,SMILES,Emax [%]
1,"CC(C)S(=O)(=O)c1cccc(C(=O)NCC(=O)Nc2nc(-c3cccc(-c4ccnc(C(F)(F)F)c4)c3)cs2)c1 [Compound 19, 3-(isopropylsulfonyl)-N-(2-oxo-2-((4-(3-(2-(trifluoromethyl)pyridin-4-yl)phenyl)thiazol-2-yl)amino)ethyl)benzamide]",> 70
2,"CC(C)S(=O)(=O)c1cccc(C(=O)NCC(=O)Nc2nc(-c3cccc(-c4ccnc(N)c4)c3)cs2)c1 [Compound 22, N-(2-((4-(3-(2-aminopyridin-4-yl)phenyl)thiazol-2-yl)amino)-2-oxoethyl)-3-(isopropylsulfonyl)benzamide]",> 80
3,"CC(C)S(=O)(=O)c1cccc(C(=O)NCC(=O)Nc2nc(-c3cccc(-c4cccc(C#N)c4)c3)cs2)c1 [Compound 24, N-(2-((4-(3′-cyano-[1,1′-biphenyl]-3-yl)thiazol-2-yl)amino)-2-oxoethyl)-3-(isopropylsulfonyl)benzamide]",> 60
4,"CC(C)S(=O)(=O)c1cccc(C(=O)NCC(=O)Nc2nc(-c3cccc(-c4ccnc(CO)c4)c3)cs2)c1 [Compound 26, N-(2-((4-(3-(2-(hydroxymethyl)pyridin-4-yl)phenyl)thiazol-2-yl)amino)-2-oxoethyl)-3-(isopropylsulfonyl)benzamide]",> 90
5,"CC(C)S(=O)(=O)c1cccc(C(=O)NCC(=O)Nc2nc(-c3cccc(-c4cc(CO)cc(C(F)(F)F)c4)c3)cs2)c1 [Compound 27, N-(2-((4-(3′-(hydroxymethyl)-5′-(trifluoromethyl)-[1,1′-biphenyl]-3-yl)thiazol-2-yl)amino)-2-oxoethyl)-3-(isopropylsulfonyl)benzamide]",> 80
6,"CC(C)S(=O)(=O)c1cccc(C(=O)NCC(=O)Nc2nc(-c3cccc(-c4cccc(Cl)c4)c3)cs2)c1 [Compound 28, N-(2-((4-(3′-chloro-[1,1′-biphenyl]-3-yl)thiazol-2-yl)amino)-2-oxoethyl)-3-(isopropylsulfonyl)benzamide]",> 50
7,"COc1cc(-c2cccc(-c3csc(NC(=O)CNC(=O)c4cccc(S(=O)(=O)C(C)C)c4)n3)c2)ccn1 [Compound 29, 3-(isopropylsulfonyl)-N-(2-((4-(3-(2-methoxypyridin-4-yl)phenyl)thiazol-2-yl)amino)-2-oxoethyl)benzamide]",> 80
8,"CC(C)S(=O)(=O)c1cccc(C(=O)NCC(=O)Nc2nc(-c3cccc(-c4cc(Cl)cc(Cl)c4)c3)cs2)c1 [Compound 30, N-(2-((4-(3′,5′-dichloro-[1,1′-biphenyl]-3-yl)thiazol-2-yl)amino)-2-oxoethyl)-3-(isopropylsulfonyl)benzamide]",> 50
9,"CC(C)S(=O)(=O)c1cccc(C(=O)NCC(=O)Nc2nc(-c3cccc(-c4ccnc(CN(C)C)c4)c3)cs2)c1 [Compound 45, N-(2-((4-(3-(2-((dimethylamino)methyl)pyridin-4-yl)phenyl)thiazol-2-yl)amino)-2-oxoethyl)-3-(isopropylsulfonyl)benzamide]",> 80
